Experimental data published in article PMC10323247.

Biological target: recombinant human augmin complex (GFP-augmin), all eight full-length subunits HAUS1-HAUS8 (human) (UniProt Q96CS2)
Assay: MST; twofold dilution series of importins α/β (4.3 μM-0.131 nM final) mixed with an equal amount of 10 nM mGFP-augmin; BRB80, 1 mM TCEP, 0.02 mg/ml κ-casein, 3 mM ATP, 2 mM GTP; 5 min at room temperature; Monolith NT.115

Substance: human importin α (KPNA2 subunit) and importin β (KPNB1 subunit), together importin α/β (from UniProt P52292 1-529; Q14974 1-876) (complex; other documents disagree on this pair)
- Kd: 13.1 nM
